# In ChEMBL document CHEMBL1148595, “Identification of Darmstoff analogs as selective agonists and antagonists of lysophosphatidic acid receptors” (Bioorg Med Chem Lett, 2006):
# Chains of the proteins cited; added tags and fusions are not shown. Lines headed by an entry give the natural chain unless they say otherwise; changes in a name come on top.
# UniProt P61794: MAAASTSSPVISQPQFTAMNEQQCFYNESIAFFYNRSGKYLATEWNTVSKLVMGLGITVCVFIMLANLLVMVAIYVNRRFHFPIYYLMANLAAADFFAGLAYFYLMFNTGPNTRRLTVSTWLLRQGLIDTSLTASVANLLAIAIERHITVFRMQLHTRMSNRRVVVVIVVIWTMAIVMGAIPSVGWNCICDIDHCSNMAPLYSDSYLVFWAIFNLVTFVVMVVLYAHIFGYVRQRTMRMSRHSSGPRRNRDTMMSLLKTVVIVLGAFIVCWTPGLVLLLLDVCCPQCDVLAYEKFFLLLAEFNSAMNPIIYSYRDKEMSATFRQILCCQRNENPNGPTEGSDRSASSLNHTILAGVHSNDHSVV
# Target: Lysophosphatidic acid receptor 1 (Rattus norvegicus) (UniProt P61794)
# Experiment: Activity at LPA1 receptor in RH7777 rat hepatoma cell line
# Type: cell-based
smiles,measurement,value
C/C=C/C/C=C/C/C=C/CCCCCCCCC1OCC(COP(=O)(O)O)O1 (stereo unspecified),Emax,55%
